Test results published in PubChem BioAssay AID504634 (The Scripps Research Institute Molecular Screening Center, 2011).
The entries are a selection whose mix differs from that of the whole data set. Active and inactive are the calls of the source. No stated cut-off is given here; in the data, active means inhibition mostly above about 23% (no sharp cut-off); inactive means mostly below about 18%.

The chains behind the UniProt entries cited, without tags or fusion partners.
UniProt P47898, whole entry, looked up: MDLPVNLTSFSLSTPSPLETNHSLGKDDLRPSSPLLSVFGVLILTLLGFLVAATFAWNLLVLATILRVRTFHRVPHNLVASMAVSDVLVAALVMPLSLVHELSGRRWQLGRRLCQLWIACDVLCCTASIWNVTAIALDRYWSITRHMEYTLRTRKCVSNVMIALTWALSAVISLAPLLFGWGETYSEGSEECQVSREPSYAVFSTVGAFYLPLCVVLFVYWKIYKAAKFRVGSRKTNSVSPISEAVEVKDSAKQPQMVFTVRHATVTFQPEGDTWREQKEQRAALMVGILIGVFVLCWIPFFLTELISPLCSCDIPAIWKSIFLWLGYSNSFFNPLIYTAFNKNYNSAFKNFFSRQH

These molecules were tested against 5-hydroxytryptamine receptor 5A (Homo sapiens) (UniProt P47898) (assay: inverse agonism at human 5-HT5A receptor – cell-based, luminescence, full-deck HTS, counter-screen for OPRM1-OPRD1 heterodimer inverse agonist project, primary screen (AID 504634;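 further: 0% = cells with DMSO and 100% = no-cell wells with DMSO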)). Details: HTR5A cell line, at 9.3 µM, hits give high values.
With CC(=O)c1ccc(NC(=O)C2CC(=O)Nc3nc4ccccc4n32)cc1 (stereo not given) the inhibition was inactive: 9.92%. In the case of O=C(Nc1ccc2c(c1)nc1n2CCN(Cc2ccccc2)C1)c1cccs1, the inhibition is reported as inactive: -2.17%. O=C(CCC(=O)Nc1ccccc1)N/N=C/C=C/c1ccccc1 was tested, and the inhibition was inactive: 13.4%. For CC1CN(Cc2nc3c(c(=O)[nH]c(=O)n3C)n2CCN2CCOCC2)CC(C)O1 (stereo not given), the inhibition was inactive: 16.9%. In the case of Cn1c(=O)c2c(ncn2CC(N)=O)n(C)c1=O, the inhibition is reported as inactive: 12.8%. For O=C(Cn1c(-c2cncs2)nc2ccccc21)NCc1ccccc1, the inhibition was inactive: 2.73%. In the case of COc1ccc(N2C(=O)CC(n3c(CCCCO)nc4ccccc43)C2=O)cc1 (stereo not given), the inhibition is reported as inactive: -3.72%. In the case of O=C(NCCn1c(C(F)(F)F)nc2ccccc21)[C@H]1CCCN1c1nc(CN2CCCCC2)cs1, the inhibition is reported as inactive: -26.3%. For Cc1ccccc1NC(=O)Cn1cnc2c1c(=O)n(C)c(=O)n2C, the inhibition was inactive: -1.96%. With O=C(Cn1c(COc2ccccc2)nc2ccccc21)Nc1cc(Cl)ccc1Cl the inhibition was inactive: 8.86%. In the case of COc1ccc(CC(=O)N2CCC(Nc3nc4ccccc4n3Cc3ccc(F)cc3)CC2)cc1, the inhibition is reported as inactive: -19.6%. For COc1ccc(CCNC(=O)Cn2c(-c3nonc3N)nc3ccccc32)cc1OC, the inhibition was inactive: -1.7%. With CN(CC(=O)Nc1cccc(F)c1)C(=O)Cn1cnc2c1c(=O)n(C)c(=O)n2C the inhibition was inactive: 6.66%. CC(C)NC(=O)Cn1c(SCC(=O)N2CCCCCC2)nc2ccccc21 was tested, and the inhibition was inactive: -21%. In the case of O=C(Cn1c(NCCO)nc2ccccc21)NCCc1ccccc1, the inhibition is reported as inactive: -1.94%. In the case of Cc1ccc(/C=N/NC(=O)Cn2cnc3ccccc32)cc1, the inhibition is reported as inactive: 1.5%. In the case of Clc1ccc(Cl)c(NC2=NCC(CBr)S2)c1 (stereo not given), the inhibition is reported as inactive: 13.3%. CN1CCCC(OC(=O)C(c2ccccc2)c2ccccc2)C1 (stereo not given) was tested, and the inhibition was inactive: 21.9%. For CCCCOC(=O)Cn1c(=N)n(CCN2CCOCC2)c2ccccc21, the inhibition was inactive: 3.13%. COc1ccc(CNC(=O)CCCCCNC(=O)N2CCn3c2nc2ccccc23)cc1 was tested, and the inhibition was inactive: 5.12%. For CCOc1cc(N2CCOCC2)c(OCC)cc1NC(=O)Cn1cnc2c(=O)n(C)c(=O)n(C)c21, the inhibition was inactive: 10.2%. In the case of O=C1Cn2c(nc3ccccc32)N1c1cccc(C(F)(F)F)c1, the inhibition is reported as inactive: -8.51%. COc1ccc(C(=O)CSc2nc3ccccc3n2CC(=O)NC(C)(C)C)cc1 was tested, and the inhibition was inactive: 1.97%. For CCC(C)(C)n1nnnc1CN1CCC(n2c(C)nc3cc(C(F)(F)F)ccc32)CC1, the inhibition was inactive: -14.7%. With Cc1nc2cc(F)ccc2n1C1CCN(Cc2nnnn2CCc2ccccc2)CC1 the inhibition was inactive: 14.8%. For CN1CC[C@]2(CCN3CCc4c(oc5ccccc45)[C@@H]3C2)N(C)C1=O, the inhibition was inactive: -30.8%. With COc1ccccc1OP(=O)(Nc1ccc(C)cn1)Oc1ccccc1OC the inhibition was inactive: -11.3%. CN1CCN(CCN2CCn3c2nc2ccccc23)CC1 was tested, and the inhibition was inactive: 2.82%. In the case of CC(O)c1nc2ccccc2n1CC(=O)N1CCN(c2ccccc2)CC1 (stereo not given), the inhibition is reported as inactive: -0.58%. In the case of CCOCN(C(=O)Cn1c(C(C)O)nc2ccccc21)c1c(C)cccc1CC (stereo not given), the inhibition is reported as inactive: 8.19%. Cc1ccc(N/C(=N/P(=O)(N2CCOCC2)N2CCOCC2)N2CCOCC2)cc1 was tested, and the inhibition was inactive: 23.3%. O=C(Cn1cnc2c(NCc3ccccc3)ncnc21)NCc1ccc2c(c1)OCO2 was tested, and the inhibition was inactive: -8.76%. For CC(CNC(=O)Cn1cnc2c(NCc3ccccc3)ncnc21)c1ccccc1 (stereo not given), the inhibition was inactive: -3.89%. With O=C(CSc1nc2ccccc2n1CC(=O)N1CCCCC1)N1CCCCC1 the inhibition was inactive: 23.8%. CN(C(=O)Cc1ccc(Cl)c(Cl)c1)[C@H]1CCCC[C@H]1N1CCCC1 was tested, and the inhibition was inactive: -11.6%. For CCN(CC)CCn1c(NS(=O)(=O)c2ccc(C)cc2)nc2ccccc21, the inhibition was inactive: -22.6%. For CN(CC(=O)Nc1ccc(F)c(F)c1F)C(=O)Cn1cnc2c1c(=O)n(C)c(=O)n2C, the inhibition was inactive: -1.81%. C[C@H](O)[C@@H]1C(=O)N2CCc3ccc(-c4ccccc4)cc3[C@@H]2C[C@@H]1N(C)C(=O)NC1CCCCC1 was tested, and the inhibition was inactive: 9.21%. With NC(=O)c1cc([N+](=O)[O-])cc([N+](=O)[O-])c1N the inhibition was inactive: -3.38%. In the case of CSc1nc(N)nc2c1ncn2CC(=O)NCc1ccc2[nH]ccc2c1, the inhibition is reported as inactive: -11.8%. For Cc1ccc2c(c1)C1CN(C)CCC1N2C(=O)c1ccc(Cl)c(S(=O)(=O)N2CCOCC2)c1 (stereo not given), the inhibition was inactive: -4.16%. In the case of O=C(Nc1ccccc1)N1CCC(n2c(=O)[nH]c3ccccc32)CC1, the inhibition is reported as inactive: -2.76%. With CC1CCCN(C(=O)Cn2c(-c3nonc3N)nc3ccccc32)C1 (stereo not given) the inhibition was inactive: 7.92%. In the case of Nc1nonc1-c1nc2ccccc2n1CC(=O)N/N=C\c1ccc(-c2ccc(Cl)cc2)o1, the inhibition is reported as inactive: -27.4%. With Cc1ccc(-c2csc(N3CCN(c4ccc5nc(-c6ccncc6)n(CCN6CCCCC6)c5c4)CC3)n2)cc1 the inhibition was inactive: 5.28%.
